Measured values published in ChEMBL document CHEMBL5316292, “Physachenolide C is a Potent, Selective BET Inhibitor” (J Med Chem, 2023).

What was measured:
[1] = Selectivity ratio of IC50 for BRD3-BD1 (unknown origin) to IC50 for BRD4-BD2 (unknown origin)
[2] = Selectivity ratio of IC50 for BRD3-BD1 (unknown origin) to IC50 for BRD3-BD2 (unknown origin)
[3] = Selectivity ratio of IC50 for BRD4-BD1 (unknown origin) to IC50 for BRD3-BD2 (unknown origin)
[4] = Selectivity ratio of IC50 for BRD4-BD1 (unknown origin) to IC50 for BRD4-BD2 (unknown origin)
[5] = Selectivity ratio of Kd for 6His-tagged BRD3-BD1 (unknown origin) to Kd for 6His-tagged BRD3-BD2 (unknown origin)

SMILES: CC(=O)OC[C@]12CC[C@H]3[C@@H](C[C@H]4O[C@]45CC=CC(=O)[C@]35C)[C@]1(O)[C@@H](OC(C)=O)C[C@@]2(O)[C@@](C)(O)[C@H]1CC(C)=C(C)C(=O)O1
- Selectivity ratio [1]: 30
- Selectivity ratio [2]: 30
- Selectivity ratio [3]: 30
- Selectivity ratio [4]: 30

SMILES: CC(=O)OC[C@]12CC[C@H]3[C@@H](C[C@H]4O[C@]45CC=CC(=O)[C@]35C)[C@]1(O)CC[C@@]2(O)[C@@](C)(O)[C@H]1CC(C)=C(C)C(=O)O1
- Selectivity ratio [5]: 10

SMILES: CC(=O)OC[C@]12CC[C@H]3[C@@H](C[C@H]4O[C@]45CCCC(=O)[C@]35C)[C@]1(O)CC[C@@]2(O)[C@@](C)(O)[C@H]1CC(C)=C(C)C(=O)O1
- Selectivity ratio [1]: 30
- Selectivity ratio [2]: 30
- Selectivity ratio [3]: 30
- Selectivity ratio [4]: 30

SMILES: CC(=O)OC[C@]12CC[C@H]3[C@@H](CC=C4CC=CC(=O)[C@@]43C)[C@]1(O)CC[C@@]2(O)[C@@](C)(O)[C@H]1CC(C)=C(C)C(=O)O1
- Selectivity ratio [1]: 30
- Selectivity ratio [2]: 30
- Selectivity ratio [3]: 30
- Selectivity ratio [4]: 30

SMILES: CC(=O)OC[C@]12CC[C@H]3[C@@H](C[C@@H]4O[C@@]45CC=CC(=O)[C@]35C)[C@]1(O)CC[C@@]2(O)[C@@](C)(O)[C@H]1CC(C)=C(C)C(=O)O1
- Selectivity ratio [1]: 30
- Selectivity ratio [2]: 30
- Selectivity ratio [3]: 30
- Selectivity ratio [4]: 30
